Laboratory results taken from BindingDB's records for PubMed 2172775 (Neurogenetic, 1990).

Sequences of proteins named here, by UniProt entry; tags and fusion partners are left off.
UniProt P18089, whole entry: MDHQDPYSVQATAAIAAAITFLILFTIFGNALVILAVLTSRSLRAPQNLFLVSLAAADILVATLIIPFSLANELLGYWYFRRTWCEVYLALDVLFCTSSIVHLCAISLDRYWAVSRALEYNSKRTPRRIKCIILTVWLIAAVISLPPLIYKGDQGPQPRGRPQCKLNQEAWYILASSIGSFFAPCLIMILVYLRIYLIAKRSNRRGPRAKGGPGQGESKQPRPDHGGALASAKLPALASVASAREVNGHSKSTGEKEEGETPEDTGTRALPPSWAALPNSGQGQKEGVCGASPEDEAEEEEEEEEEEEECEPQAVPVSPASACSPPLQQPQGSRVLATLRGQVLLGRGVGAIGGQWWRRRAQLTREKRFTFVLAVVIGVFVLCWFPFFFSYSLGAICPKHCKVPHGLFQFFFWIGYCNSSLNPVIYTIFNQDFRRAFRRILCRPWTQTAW

Target: Alpha-2B adrenergic receptor (Homo sapiens, UniProt P18089)

- Ki: 4.5 nM
Compound: Nc1cc(Cl)c(N=C2NCCN2)c(Cl)c1 [p-AMINOCLONIDINE]
